Amino acid sequences for entries named in this document (tags omitted). A change or cut given only in a name is not applied to a line headed by its entry.
UniProt Q9UNQ0: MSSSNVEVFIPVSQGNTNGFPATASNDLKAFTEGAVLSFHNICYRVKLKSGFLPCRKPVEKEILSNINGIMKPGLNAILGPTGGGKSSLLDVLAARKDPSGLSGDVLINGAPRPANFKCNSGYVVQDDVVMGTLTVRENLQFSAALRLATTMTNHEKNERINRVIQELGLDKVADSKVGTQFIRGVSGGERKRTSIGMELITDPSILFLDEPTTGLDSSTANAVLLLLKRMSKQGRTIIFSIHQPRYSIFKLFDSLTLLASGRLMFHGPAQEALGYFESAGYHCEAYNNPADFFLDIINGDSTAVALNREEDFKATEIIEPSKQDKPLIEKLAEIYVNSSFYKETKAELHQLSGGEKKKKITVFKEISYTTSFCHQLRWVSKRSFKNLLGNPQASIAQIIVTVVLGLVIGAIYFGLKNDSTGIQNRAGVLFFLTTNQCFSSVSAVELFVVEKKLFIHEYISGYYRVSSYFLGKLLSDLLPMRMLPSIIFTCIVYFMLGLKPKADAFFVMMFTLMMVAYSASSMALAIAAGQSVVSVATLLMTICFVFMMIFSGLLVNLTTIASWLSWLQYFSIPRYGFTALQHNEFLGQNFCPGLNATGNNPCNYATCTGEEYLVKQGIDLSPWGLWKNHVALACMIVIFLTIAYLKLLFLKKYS

According to PMC12567041 (Pharmaceutics, 2025):

Assays:
[1] = in vitro; settings: dog, MDCK
[2] = target: BCRP (Homo sapiens, UniProt Q9UNQ0); settings: read-out: BCRP Ki; Simcyp SV-Rifampicin-SD library compound file; cited from earlier work

| Structure (SMILES) | Papp A→B [1] | Ki [2] |
| --- | --- | --- |
| O=C(Nc1ccc(OC(F)(F)Cl)cc1)c1cnc(N2CC[C@@H](O)C2)c(-c2ccn[nH]2)c1 [asciminib] | 22.1 ×10⁻⁶ cm/s |  |
| CO[C@H]1/C=C/O[C@@]2(C)Oc3c(C)c(O)c4c(O)c(c(/C=N/N5CCN(C)CC5)c(O)c4c3C2=O)NC(=O)/C(C)=C\C=C\[C@H](C)[C@H](O)[C@@H](C)[C@@H](O)[C@@H](C)[C@H](OC(C)=O)[C@@H]1C [rifampicin] |  | 12.5 µM |
